US8592454B2, “Nitrogen-containing heterocyclic compound and use of same” (Takeda Pharmaceutical Company Limited, priority 2008, dated 2013)
pIC50: −log10 of the molar value.

Protein sequences, listed by entry. Tags and fused reporters are not part of them.
UniProt P29371, whole entry: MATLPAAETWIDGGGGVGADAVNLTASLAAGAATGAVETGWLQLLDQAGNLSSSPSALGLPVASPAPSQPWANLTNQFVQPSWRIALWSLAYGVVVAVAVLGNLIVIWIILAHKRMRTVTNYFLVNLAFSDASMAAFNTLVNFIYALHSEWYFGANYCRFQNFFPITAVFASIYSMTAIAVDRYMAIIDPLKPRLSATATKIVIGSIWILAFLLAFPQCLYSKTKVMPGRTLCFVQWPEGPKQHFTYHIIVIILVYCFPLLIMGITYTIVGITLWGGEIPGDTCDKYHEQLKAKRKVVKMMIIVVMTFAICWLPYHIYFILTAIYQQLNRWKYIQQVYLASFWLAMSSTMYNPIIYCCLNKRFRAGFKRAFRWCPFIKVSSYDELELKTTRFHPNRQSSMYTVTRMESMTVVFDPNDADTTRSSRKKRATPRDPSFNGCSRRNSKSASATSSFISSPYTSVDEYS

Target: Human NK3 (hNK3) receptor (Homo sapiens (Human), UniProt P29371)

pIC50: 6.85
SMILES: CC(=O)N1CCC(C(=O)N2C[C@@H](N(C)C(=O)N(C)c3cc(C(F)(F)F)cc(C(F)(F)F)c3)[C@H](c3ccc(Cl)c(Cl)c3)C2)CC1 (racemic) [Example 66, 1-[(3S*, 4R*)-1-[(1-acetylpiperidin-4-yl)carbonyl]-4-(3,4-dichlorophenyl)pyrrolidin-3-yl]-3-[3,5-bis(trifluoromethyl)phenyl]-1,3-dimethylurea]
